# Yeast mating assay 2: variants of the scFv Ab-91

The target is the same throughout: PDVDLGDISGINAS, from the HR2 region of SARS-CoV-2 spike.

Ab-91 is the parent antibody, in scFv form: VL, then the linker GGGGSGGGGSGGGGS, then VH. The light chain is unchanged in all variants.
VL: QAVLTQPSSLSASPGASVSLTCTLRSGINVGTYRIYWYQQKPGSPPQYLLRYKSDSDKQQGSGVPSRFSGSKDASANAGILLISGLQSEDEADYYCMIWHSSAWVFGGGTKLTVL
VH: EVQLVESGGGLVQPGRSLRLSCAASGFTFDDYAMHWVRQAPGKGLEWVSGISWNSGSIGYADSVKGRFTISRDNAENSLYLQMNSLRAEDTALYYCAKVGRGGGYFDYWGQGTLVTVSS

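The parent was found by panning a naive human phage display library on the peptide. Library AAYL51 holds single substitutions and randomly drawn double and triple substitutions in the CDRs. The scFvs were displayed on barcoded MATa yeast, the peptide on MATalpha yeast. Binding brings cells together so that they mate, and sequencing counts the barcode pairs among the diploids. The ratio of observed to expected reads was calibrated, replicate by replicate, on BCL2-family standards whose Kd was known from biolayer interferometry. There are three technical replicates.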

Variants are written as CDR1, CDR2 and CDR3 of the heavy chain (limits as in the source). Parent: GFTFDDYAMH, GISWNSGSIGYADSVK, VGRGGGYFDY.
Numbers give log10(Kd / nM), so 0 is 1 nM and 3 is 1 µM. Smaller is tighter.
Where no diploid with the target was found in that replicate, the entry reads "ND": below detection, most likely a poor binder, though not proof of it.
In this assay the parent's reference entry averaged 1.86; its copy inside this library read 0.88.
Three control strains display no target. For library AAYL51, 21% of the pairings with them gave a signal, with a median of 4.54 and one signal in twenty below 3.26, so weak values seen in few replicates may be background. Also given: how often the same scFv was detected with the empty control strains, with their mean in brackets.

CDR-H1	CDR-H2	CDR-H3	replicates, log10 nM	empty controls
GFTFDDYAMH	GISWNSGSIPYADSVK	VGRMGGTFDY	4.56 / ND / 5.28	6 of 9 (5.10)
GFTFDGYADH	GISWNSGSIGYAASVK	VGRGGGYFDY	ND / ND / ND	1 of 9 (4.47)
GFTFDDYAMH	GISWNSGSIGAADSVK	VGRGGGYFDF	2.74 / 2.61 / 3.15	2 of 9 (4.28)
GFTFMPYAMH	GISWNSGSIGYADSVK	VGRGGGNFDY	ND / 4.86 / ND	8 of 9 (4.51)
GFTFDDYAMH	GISWNSGSIGFADSVK	VGRGGGDFDY	3.02 / 2.71 / 1.64	0 of 9
GFTGDDYAMH	TIWWNSGSIGYADSVK	VGRGGGYFDY	4.47 / 4.96 / ND	6 of 9 (4.94)
GFTFDDYAMH	CISGNSGSIGYADSVK	VVRGGGYFDY	ND / 4.05 / ND	1 of 9 (3.47)
GFVFDDYAMH	GISWNSGSIGFADSNK	VGRGGGYFDY	ND / ND / ND	1 of 9 (3.56)
GFTFDDYAMH	GISWNSGSIGYADSLK	VGRGGGYFDT	1.20 / 1.32 / 0.57	2 of 9 (4.28)
GFTFDDYAFC	GASWNSGSIGYADSVK	VGRGGGYFDY	5.41 / ND / ND	1 of 9 (4.79)
GFTFDDYFMH	GISWNSGSIGYADSVK	VFRGGGYNDY	4.31 / 5.07 / ND	0 of 9
GFTFDCYAMH	GISWNSGSVGYADSVE	VGRGGGYFDY	0.78 / 0.78 / 0.06	4 of 9 (4.71)
GFTFDWYAMH	GISWNPGSIGYADSVK	VGRGGGYFRY	ND / ND / ND	1 of 9 (5.44)
GFTFDDYAVH	GISWNSGSIGYADSVK	VGNPGGYFDY	5.27 / 4.86 / ND	4 of 9 (4.82)
GFTFDDYDMH	GISWNSGSIGYADSVK	VGRYGCYFDY	ND / ND / ND	2 of 9 (3.93)
GFTFDDYAMH	GISWNSGSNGYADSVK	VGRGGGYFDC	ND / ND / ND	1 of 9 (3.53)
GFTFDDYAMH	GISWKSGSIGYCDDVK	VGRGGGYFDY	ND / 5.17 / ND	2 of 9 (2.37)
GFTFDDYYMH	GISWNSGSIGYADSVE	VGQGGGYFDY	4.95 / 5.57 / 5.51	7 of 9 (5.21)
GFTFDDYAMH	GISWNSGSIGYADWVK	PGRGGGYFDT	ND / ND / ND	3 of 9 (3.87)
GFTFDCYAMH	GISWNSGSPGYADSPK	VGRGGGYFDY	4.76 / 4.79 / 4.93	2 of 9 (4.74)
GFTFDDYAIH	GASWNSGSIGYADSVK	VGRGGGAFDY	4.14 / ND / ND	4 of 9 (4.28)
GFTADDYAMH	GIRWNSGSIGYADSVK	VGRGGGYYDY	3.62 / 4.65 / 3.65	1 of 9 (2.88)
GFTFEDMAMH	GISWNSGSIGYTDSVK	VGRGGGYFDY	1.43 / 1.15 / 0.75	1 of 9 (5.59)
GFTFDDHAMH	GISWNSGSDGYADSVK	VGRGHGYFDY	ND / ND / 4.42	2 of 9 (4.05)
GFTFPDYAMH	GVSFNSGSIGYADSVK	VGRGGGYFDY	1.63 / 1.79 / 1.39	6 of 9 (4.60)
GDTFDDYAMH	GISWNSGSIGYADSVK	VGRGGGYFHY	2.76 / 3.02 / 2.63	5 of 9 (4.60)
GFTFDDYAMH	GISWNSGSIGYAMSVA	VGRCGGYFDY	ND / ND / ND	0 of 9
GFTFDDYTMH	GISWNSGSIGYADSVK	VGRGGAYFDY	ND / ND / ND	0 of 9
GFTFDDYWMH	GISWNSGSIGGADSVK	VGRGGGYFEY	4.37 / ND / 4.25	3 of 9 (4.58)
GFTFDDYAMH	GTFWNSGSIGYADSVK	VGRTGGYFDY	ND / ND / ND	1 of 9 (3.64)
GFTFDDYAMH	GISWNSGPIGYADSAQ	VGRGGGYFDY	ND / 4.75 / 3.46	3 of 9 (4.34)
GFTFDDGADH	GISWNSGSIGYASSVK	VGRGGGYFDY	4.38 / 4.44 / 6.31	8 of 9 (5.15)
GFTFDDYAYH	GISWNSGSIGYADSVK	VMRHGGYFDY	ND / ND / ND	3 of 9 (3.25)
GFTFDDYAMH	GIGWNSGSIGYADLVK	VGDGGGYFDY	4.47 / ND / 3.84	5 of 9 (4.00)
GFTFDDYAMH	GISWNSGSIGYADSVP	VGRRTGYFDY	ND / ND / ND	0 of 9
GFTFDDYAMH	QISWNSGSIGYADSVK	VGRGAGYFGY	ND / ND / ND	0 of 9
GFTFDDYAMH	GIIWNSGSIGLADSVK	CGRGGGYFDY	4.49 / ND / ND	4 of 9 (5.33)
GFTFFDLAMH	GISWNSGSIGYADSVK	VGRGGGYFDY	ND / ND / ND	0 of 9
GFTFDDCAMH	GISWNSNSIGYAWSVK	VGRGGGYFDY	4.71 / ND / ND	1 of 9 (3.72)
GFQFSDYAMH	GISWNSGSIGYADSVK	VGLGGGYFDY	1.55 / 1.54 / 0.88	3 of 9 (3.88)
GFTFDDEAMH	GISWNSGSIGYADSVA	EGRGGGYFDY	ND / 5.99 / ND	2 of 9 (4.92)
DFTFDDYAMT	GISWNSGSIGYADSVK	VGAGGGYFDY	ND / 4.57 / ND	5 of 9 (5.30)
GFTFDDYAMA	HISWNSGSIGYADSVK	VGRGGGYFDT	ND / ND / ND	0 of 9
GFTFDYYAMH	GISVNSGSIGYADSVK	VGRGGGYFDP	1.60 / 2.54 / 1.63	1 of 9 (4.84)
GFTFDDYAMT	GISWNSGKIGYADSVK	VGRGGGYFGY	4.95 / ND / ND	5 of 9 (4.66)

A selection of 3 entries from above:

CDR-H1,CDR-H2,CDR-H3,"replicates, log10 nM",empty controls
GFTFDDYAMH,GISWNSGSIGYADSVP,VGRRTGYFDY,ND / ND / ND,0 of 9
GFTFDDEAMH,GISWNSGSIGYADSVA,EGRGGGYFDY,ND / 5.99 / ND,2 of 9 (4.92)
GFTFDDYAMH,GTFWNSGSIGYADSVK,VGRTGGYFDY,ND / ND / ND,1 of 9 (3.64)

From the AlphaSeq antibody data of Engelhart et al. 2022 (doi:10.1038/s41597-022-01779-4), copy in the FLAb collection.